{"source": "ChEMBL document CHEMBL3227964", "about": "(J Med Chem, 1979)", "key": {"Escherichia coli [1]": {"tested_on": "Escherichia coli", "experiment": "Antimicrobial activity against Escherichia coli AB1157 assessed as reduction in colony formation at 1 mM", "assay_type": "organism-based", "conditions": "in vivo, 1000 µM"}, "Escherichia coli [2]": {"tested_on": "Escherichia coli", "experiment": "Induction of sensitization to irradiation in Escherichia coli AB1157 under oxic condition assessed as reduction in colony formation at 1 mM measured after irradiation", "assay_type": "organism-based", "conditions": "in vivo, 1000 µM"}, "[3]": {"experiment": "Dissociation constant, pKa of the compound"}}}
{"molecule": "O=[N+]([O-])c1cnc([N+](=O)[O-])[nH]1", "values": [{"measurement": "Activity", "setting": "Escherichia coli [1]", "result": "Non-toxic"}, {"measurement": "Activity", "setting": "Escherichia coli [2]", "result": "Toxic"}, {"measurement": "pKa", "setting": "[3]", "result": 2.86}]}
